Results published in paper PMC13623127 (PLOS One, 2026).

Target: T1, activation-inducible TNF-related ligand (TNF ligand superfamily member 18), recombinant soluble form (human, UniProt Q9UNG2 49-177)
T1 construct: also called AITRL
T1 sequence (looked up): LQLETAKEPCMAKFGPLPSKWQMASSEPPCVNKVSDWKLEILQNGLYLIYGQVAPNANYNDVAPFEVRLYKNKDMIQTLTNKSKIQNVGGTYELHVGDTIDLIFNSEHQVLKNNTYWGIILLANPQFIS
Assay: SPR; TNFSF member immobilised on ProteOn GLH chip by amine coupling (up to 5,000-14,500 RU); S100 analyte 62.5 nM to 16 uM, 300 s at 30 uL/min; 25°C; 10 mM HEPES-NaOH, 150 mM NaCl, 0.05% TWEEN 20, 1 mM CaCl2, pH 7.4; heterogeneous ligand, one-site or two-state model; constants averaged over analyte concentrations (SD, n = 2-9)
Conditions: both partners purified

Kd: 398 nM
B1: recombinant tag-free human S100A1 (natural protein, UniProt P23297 1-94, looked up)
chain: MGSELETAMETLINVFHAHSGKEGDKYKLSKKELKELLQTELSGFLDAQKDVDAVDKVMKELDENGDGEVDFQEYVVLVAALTVACNNFFWENS
notes: S100A1, human, recombinant, tag-free; Tag-free
